According to paper PMC8691691 (ACS Chemical Neuroscience, 2021):

Columns and labels:
GlyT2 G214L mutant = molecular target: T1, GlyT2 G214L mutant (Rattus norvegicus, UniProt P58295, G214L); assay: [3H]glycine transport by GlyT2 mutant in COS7 cells; format: cell-based
T1 construct: expressed in transfected cells; host or cells: COS7
T1 sequence (P58295 1-799 G214L): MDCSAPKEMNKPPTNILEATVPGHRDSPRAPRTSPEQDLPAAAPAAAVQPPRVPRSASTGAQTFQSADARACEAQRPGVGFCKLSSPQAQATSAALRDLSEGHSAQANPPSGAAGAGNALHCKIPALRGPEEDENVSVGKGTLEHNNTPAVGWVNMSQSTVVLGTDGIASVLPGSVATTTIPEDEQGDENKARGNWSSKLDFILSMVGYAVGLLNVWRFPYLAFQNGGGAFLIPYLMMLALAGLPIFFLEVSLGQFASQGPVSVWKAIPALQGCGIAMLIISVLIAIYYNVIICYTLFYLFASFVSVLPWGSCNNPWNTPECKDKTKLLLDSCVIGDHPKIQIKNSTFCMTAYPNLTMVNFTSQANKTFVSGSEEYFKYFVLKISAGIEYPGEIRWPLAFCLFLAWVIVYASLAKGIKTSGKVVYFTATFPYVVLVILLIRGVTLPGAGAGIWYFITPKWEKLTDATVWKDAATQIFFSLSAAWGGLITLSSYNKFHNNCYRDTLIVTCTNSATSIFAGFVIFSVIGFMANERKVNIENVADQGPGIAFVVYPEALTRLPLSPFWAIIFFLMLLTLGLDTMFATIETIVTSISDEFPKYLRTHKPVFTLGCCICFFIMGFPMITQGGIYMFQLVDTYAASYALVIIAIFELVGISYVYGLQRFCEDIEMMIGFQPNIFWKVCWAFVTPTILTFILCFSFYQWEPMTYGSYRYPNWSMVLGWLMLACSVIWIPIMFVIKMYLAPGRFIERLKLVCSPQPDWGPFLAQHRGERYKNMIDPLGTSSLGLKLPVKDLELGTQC

GlyT2 T580C mutant = molecular target: T2, GlyT2 T580C mutant (Rattus norvegicus, UniProt P58295, T580C); assay: as above; format: cell-based
T2 construct: expressed in transfected cells; host or cells: COS7
T2 sequence (P58295 1-799 T580C): T1 sequence (P58295 1-799 G214L) with L214G, T580C

In the case of `NCC(=O)O` [Gly, glycine], the EC50 (GlyT2 G214L mutant) is reported as 78 ± 12 µM and the EC50 (GlyT2 T580C mutant) is reported as 600 ± 81 µM.

Residue numbers refer to the chain shown, from its start.
